Source: patent US9018391B2, “Inhibitors of beta-secretase” (Boehringer Ingelheim International GmbH, priority 2012, dated 2015)

Sequences of proteins named here, by UniProt entry; tags and fusion partners are left off. Residues count along the entry.
UniProt P56817, 22-454: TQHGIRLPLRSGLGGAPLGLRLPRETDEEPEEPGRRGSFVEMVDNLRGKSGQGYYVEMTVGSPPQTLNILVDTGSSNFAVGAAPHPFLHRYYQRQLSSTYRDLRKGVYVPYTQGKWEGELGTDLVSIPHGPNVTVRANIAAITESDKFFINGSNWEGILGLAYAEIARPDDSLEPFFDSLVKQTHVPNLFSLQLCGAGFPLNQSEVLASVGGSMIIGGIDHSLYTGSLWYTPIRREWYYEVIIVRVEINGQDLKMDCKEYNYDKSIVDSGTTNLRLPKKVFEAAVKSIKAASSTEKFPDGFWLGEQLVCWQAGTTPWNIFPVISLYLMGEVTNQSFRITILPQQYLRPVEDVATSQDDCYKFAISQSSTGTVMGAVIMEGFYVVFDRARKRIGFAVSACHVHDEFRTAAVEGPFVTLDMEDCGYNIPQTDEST

Target: truncated human beta-secretase, BACE1 (amino acids 1-454) (Homo sapiens (Human), UniProt P56817)
Experiment: BACE1 Assay (Assay 1), fluorescence quench assay
Format: biochemical
Conditions: pH 4.4
Description: The substrate was dissolved at 1 mg/ml in DMSO.
The assay was performed in the presence of OptiMEM™ (supernatant collected over 24 h and cleared from cellular debris by centrifugation) containing the ectodomain of BACE1, 25 μl water containing the desired 2-fold concentration of test compound and 2% DMSO, 1 μM substrate peptide, 20 mM NaOAc, pH 4.4, and 0.04% Triton-X100 in a total assay volume of 50 μl in a 384 well plate. In general, 25 μl of compound dilution were added to the plate followed by the addition of 10 μl of BACE1 containing OptiMEM™ diluted 1:10 in water with 0.2% Triton X-100. The reaction was started with the addition of 15 μl substrate in NaOAc buffer. The reaction was incubated at rt (dark) in an Envision® multilabel reader (Perkin Elmer) and the cleavage of the substrate was recorded as kinetic for […] at ex: 485 nm, em: 538 nm. Blank wells containing no enzyme were included on each plate.
The intensity of fluorescence was regressed against time in order to derive velocities of reaction in all 384 wells. These velocities were used for calculating percent control using an uninhibited control containing 1% DMSO as 100% and a blank control performed in the absence of enzyme as 0%. IC50 values were calculated by fitting percent control vs. test compound concentration using Assay Explorer®.

IC50: 16 nM
SMILES: COC1CCC2(CC1)Cc1ccc(C#N)cc1[C@]21N=C(N)N(C)C1=O (stereo partly shown) [drawing 10, reference compound]
